## Binding of CDR-mutated scFvs to a peptide of the spike HR2 region

From the AlphaSeq antibody data of Li et al. 2023 (doi:10.1038/s41467-023-39022-2), copy in the FLAb collection.

Target: peptide PDVDLGDISGINAS, taken from heptad repeat 2 (HR2) of SARS-CoV-2 spike.

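These sequences belong to a second round, designed from the earlier measurements on random variants of the parent. Group labels follow the data file (Ctrl: baseline library sampled from a position-specific scoring matrix, with some repeated check sequences; Rand: our label for a block that the file lists under HC and that is probably the random mutants of the ten best first-round binders; En: ensemble of fine-tuned language models; GP: Gaussian process model; HC: hill climbing; Gen: genetic algorithm; Gibbs: Gibbs sampling; a sequence that several methods proposed may carry one label only). AlphaSeq pools MATa yeast showing the antibodies with MATalpha yeast showing the peptide. Binding brings cells together so that they mate, and sequencing counts the barcode pairs among the diploids. Scores were corrected for input abundance and mapped to Kd with protein pairs of known affinity run in the same pool. Mating was done six times.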

The variants keep the heavy chain, the linker and the frameworks of Ab-14 (scFv order VH, three GGGGS repeats, VL).
VH: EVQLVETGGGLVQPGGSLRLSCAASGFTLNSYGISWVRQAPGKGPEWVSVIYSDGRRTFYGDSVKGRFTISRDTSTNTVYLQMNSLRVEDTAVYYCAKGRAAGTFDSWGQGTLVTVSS
VL: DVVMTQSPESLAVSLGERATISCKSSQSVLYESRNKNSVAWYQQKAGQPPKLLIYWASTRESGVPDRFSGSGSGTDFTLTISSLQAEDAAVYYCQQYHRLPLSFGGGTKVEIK

Each variant is given by its three light chain CDRs, as the data file delimits them; those of the parent are KSSQSVLYESRNKNSVA, WASTRES, QQYHRLPLS. The Kd shown is the geometric mean over detected replicates; a lower Kd is a better binder. "nd" marks a missing value. The strain was present, yet no cells mated with the target were sequenced in any replicate, which points to weak or no binding. Of ten entries with the parent sequence, four were seen in most replicates (averages 2.2 nM to 240 nM), three in one and three in none, so single entries are noisy. In the paper, a design with two or fewer of six values counts as a poor binder. Nonspecific signal, from three strains lacking the peptide, appeared in 4% of pairings of all light chain designs, centred on 430 nM (5% of these signals below 38 nM); values are not corrected for it. The range of this assay differs from that of the first round, and the authors advise against merging the two.

For KLSQSVLYEDRNSNSVA | NASTRES | QQYHRLPLS [GP_Gen], the assay gave 1.2 nM (6 of 6 replicates).
For KLDLNNGEMDKKGQNIA | EASTAGM | QHYWRLPLS [En_Gibbs], the assay gave 39 nM (1 of 6 replicates).
For KLGMWTYGPTEAKYNVA | EDEMRWY | QQYDRLPLI [En_Gibbs], the assay gave nd (0 of 6 replicates).
For KLASVTGTEKVHGNNVA | EMETRES | QQYNRLPLS [En_Gen], the assay gave 7.4 nM (6 of 6 replicates).
For KLYDEAENRVSTATNIA | DKKISLQ | QQYDRLPLS [En_Gibbs], the assay gave 6.1 nM (6 of 6 replicates).
For MLSDLVKFGSRNTNSVA | DNSTRGS | QQYDRLPLS [En_HC], the assay gave 89 nM (4 of 6 replicates).
For QIEWYNSTLTEAKNSVA | GVEHRMN | QQYMRLPLE [En_Gibbs], the assay gave 3.2 nM (6 of 6 replicates).
For MMSLCQNGYYQQNNSIA | DRNERAM | QQYGRLPLV [En_Gibbs], the assay gave 130 nM (4 of 6 replicates).
For HLKQVLNGVNKKSNSVA | HMNTREE | QQYDHLPLI [En_Gen], the assay gave 4.3 nM (6 of 6 replicates).
For KMLQSVLYESRNKNSVA | HASTRED | QQYHQLPLS [GP_HC], the assay gave 730 pM (6 of 6 replicates).
For KSSQSVLYESRNKNSVA | WASTRTS | QQYHRLPLS [Ctrl], the assay gave nd (0 of 6 replicates).
For KAPQSMWYESRNKNSVA | SASTRSQ | QQYHRLPLS [GP_Gibbs], the assay gave 1.9 nM (6 of 6 replicates).
For HSSPSVLYESRNKNSVA | NASGRES | QQYHRLPLS [Rand], the assay gave 9.5 nM (6 of 6 replicates).
For QIQMWEITLMENINSIA | NSEVIVQ | QSYFRLPLS [En_Gibbs], the assay gave 34 nM (2 of 6 replicates).
For TISQITSLFSQTINNVA | EVTTREA | QQYDRLPLT [En_Gen], the assay gave 480 nM (1 of 6 replicates).
For KMSVHLYDAKNRDMSIA | DEELHTM | QQYNRLPFS [En_Gibbs], the assay gave 210 nM (6 of 6 replicates).
For KSSQSVLYEGQNVNSVA | EASKRES | QQYHRLPLS [Ctrl], the assay gave 2.9 nM (1 of 6 replicates).
For KSSPSTLYESRNKNSVA | HASTRES | QQYHRLPLS [GP_HC], the assay gave 2.4 nM (6 of 6 replicates).
For KLSGSMLYEWRNCNNVA | NASQREV | QQYHRLPLS [GP_Gibbs], the assay gave 1.1 nM (6 of 6 replicates).
For QLDQAYRVGELWKYSIA | HGSMRVQ | QCYVRLPLS [En_Gibbs], the assay gave nd (0 of 6 replicates).
For KWSFSVLGESRNKNSVA | DASTRES | QQYERLPLS [GP_Gibbs], the assay gave 2.1 nM (6 of 6 replicates).
For KVSQSDLYESRNKNAVA | EASTRES | QQYHRLPLS [GP_Gen], the assay gave 420 pM (6 of 6 replicates).
For HLGGMMTWESRAKNSVA | QSNTRAE | QQYHRLPLS [En_HC], the assay gave 1.7 nM (6 of 6 replicates).
For KLSQSVLYESFYKNSVA | WASTRES | QQYHRLPLT [Ctrl], the assay gave 74 nM (2 of 6 replicates).
For KLSESVLYQSQNWNNVA | DASTRMS | QQYHRLPLS [GP_Gibbs], the assay gave 270 pM (6 of 6 replicates).
For KSMQSELDENRNDNSVA | SASTRLS | QQYHRLPLS [GP_Gibbs], the assay gave 1.0 nM (6 of 6 replicates).
For VFSGQWDLNTTVNSSVA | NVSERML | QQYNRLPLM [En_Gibbs], the assay gave 52 nM (6 of 6 replicates).
For RIQQQMAGFEREAANIA | STAVRLW | QQYARLPFI [En_Gibbs], the assay gave 2.8 nM (6 of 6 replicates).
For KSSQSVLYESRNKNSVA | YASTRES | QQYHRLVLS [Ctrl], the assay gave nd (0 of 6 replicates).
For KMSQSVLMESENKNSVA | DASTRES | QQYHRLPLS [Ctrl], the assay gave 560 pM (6 of 6 replicates).
For KSSQSVLYESRNKNNVA | WASTRES | QQYHRLWLS [Ctrl], the assay gave nd (0 of 6 replicates).
For KLDLLNGEMDKWGDNIA | EASTAGM | QHYWRLPLS [En_Gibbs], the assay gave 73 nM (3 of 6 replicates).
For KSSQSVLDESRNKNSVA | HASTRSR | QQYHRLPLS [Ctrl], the assay gave 120 nM (5 of 6 replicates).
For KFSQSVDYESRLKNSVA | NASTRES | QQYHRLPLS [GP_HC], the assay gave 2.5 nM (6 of 6 replicates).
For KVNISPHKQGMHKHGVA | DHDMRVS | QQYDRLPLA [En_Gibbs], the assay gave 14 nM (6 of 6 replicates).
For KLQFSWEYESRNKNSVA | SAHQREV | QQYHRLPLS [GP_Gibbs], the assay gave 930 pM (6 of 6 replicates).
For KLEQSAMLESRNKNAVA | SASQREL | QQYHRLPLS [GP_Gibbs], the assay gave 520 pM (6 of 6 replicates).
For ILQQSWGYQSRNKNSVA | NASTREW | QQYHRLPLS [GP_Gibbs], the assay gave 11 nM (6 of 6 replicates).
For KSSISYMYESRNKNSVA | EASTRES | QQYHRLPLS [GP_HC], the assay gave 5.3 nM (6 of 6 replicates).
For KVSQGVLYESRNKNSVA | WASTRES | QQYHRLPLS [GP_Gibbs], the assay gave 2.6 nM (6 of 6 replicates).
For KLGQMTAMESRNLNSVA | QMDTRES | QQYHRLPLS [En_HC], the assay gave 1.1 nM (6 of 6 replicates).
For TIGGTLMYGMRNYSNVA | EVSERLN | QQYDRLPLI [En_Gen], the assay gave 40 nM (4 of 6 replicates).
For KSSDSVLYESHNKNSVA | WANTRES | QQYHRLPVS [Ctrl], the assay gave 160 nM (1 of 6 replicates).
For KLSQSVLYESRNFNNVA | DASTRES | QQYHRLPLS [GP_Gen], the assay gave 400 pM (6 of 6 replicates).
For KSSQGVLFESRNKNIVA | KASKREY | GQYWRLPLS [Ctrl], the assay gave nd (0 of 6 replicates).
For QFSNTNMQGHAMWHNVA | EATYAEE | QQYARLPLQ [En_Gibbs], the assay gave 24 nM (6 of 6 replicates).
For KLWAYFQGLEQNMQNVA | DGSYVST | QQYHRFPLS [En_Gibbs], the assay gave 76 nM (1 of 6 replicates).
For IVSQLMLWGYKAKNSIA | EAQTRVN | QQYDRLPLF [En_Gen], the assay gave 120 nM (5 of 6 replicates).